# Yeast mating assay 1: variants of the scFv Ab-14

Reference: Engelhart et al. 2022, doi:10.1038/s41597-022-01779-4. File: FLAb, binding data.

Target: peptide PDVDLGDISGINAS, taken from heptad repeat 2 (HR2) of SARS-CoV-2 spike.

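The starting antibody came from a phage panning campaign against this peptide. The library (AAYL50) carries one to three amino acid substitutions per variant, with no insertions or deletions. Affinity was read by AlphaSeq, a pooled yeast mating assay with surface-displayed partners. Mating (16 h, 30 °C) was followed by selection of diploids and sequencing of their barcodes. The ratio of observed to expected reads was calibrated, replicate by replicate, on BCL2-family standards whose Kd was known from biolayer interferometry. There are three technical replicates.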

Parent scFv Ab-14: VH joined to VL by three GGGGS repeats. Changes lie in the light chain CDRs alone.
VH: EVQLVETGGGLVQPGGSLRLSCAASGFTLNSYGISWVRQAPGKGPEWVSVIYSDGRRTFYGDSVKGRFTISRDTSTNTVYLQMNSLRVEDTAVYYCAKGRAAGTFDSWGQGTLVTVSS
VL: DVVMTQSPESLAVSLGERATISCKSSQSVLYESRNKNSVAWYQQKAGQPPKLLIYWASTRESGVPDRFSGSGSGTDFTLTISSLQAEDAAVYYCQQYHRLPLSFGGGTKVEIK

Variants are written as CDR1, CDR2 and CDR3 of the light chain (limits as in the source). Parent: KSSQSVLYESRNKNSVA, WASTRES, QQYHRLPLS.
Every variant below is changed at Y97 of the VL (sequential numbering).
Kd is apparent (estimated from mating counts) and averaged on the log scale over replicates with a signal. Smaller is tighter.
A pair that was not seen in any replicate is written "no signal"; this usually means weak binding, but a binder can also be missed.
Nonspecific signal, from three strains lacking the peptide, appeared in 18% of pairings of library AAYL50, centred on 15 µM (5% of these signals below 970 nM); values are not corrected for it.
In this assay the parent's reference entry averaged 4.4 nM; its copy inside this library read 48 nM.

The variant KSSQSVLYESRNVNSVA / WGSTRES / QQSHRLPLS gave 3.0 nM (3 of 3 replicates). With KSSQSVLYESRNKNSVA / WISTRES / QQGHRLPDS the result was 5.0 µM (2 of 3 replicates). The variant KSSMSVLYESRNKNSVA / WASTRES / QFHHRLPLS gave 5.9 nM (3 of 3 replicates). The variant KSSQEVLYESRNKNSAA / WASTRES / QQWHRLPLS gave no signal (0 of 3 replicates). The variant KSSQSVLYESRNKFSVA / WASTRES / QQSHRLYLS showed no signal (0 of 3 replicates). The variant KSSQSVLYESYNKNSVA / WASTRES / QQCHRLPIS showed no signal (0 of 3 replicates).

The variant KSSQSVLYESRTKNSVA / WASTRES / QQTHRLPLS showed no signal (0 of 3 replicates). The variant KSSQSVLYESRNKNSVA / WASTRES / QCVHRLPLS showed 21 µM (1 of 3 replicates). The variant KSSQSVLYESRNKNSWA / WASTRES / QMDHRLPLS gave no signal (0 of 3 replicates). The variant KSSQSVLYESRNKNSVA / WISTRES / QQKHRLPLS gave 160 µM (2 of 3 replicates). For KSSQSVLYESRNKNSVA / WAHTRES / QQFHRLKLS, the assay gave 5.5 µM (2 of 3 replicates). For KSSQSVLYESRNKNSVA / WASTRKS / QQGHRLPLD, the assay gave 170 µM (1 of 3 replicates).

The variant KSSQSVLYESRNKNSVA / WASTAES / QQEHRKPLS gave no signal (0 of 3 replicates). With KSSASVLYESRNKNSVA / WASTRES / QQKHRLPLF the result was no signal (0 of 3 replicates). For KSSQSVLYESRNKNSVA / WASTRES / QCWHRLPLS, the assay gave 6.0 µM (1 of 3 replicates). For KSSQSVLYESRNKNSHA / WASTRES / QQSHRLPLQ, the assay gave 18 µM (1 of 3 replicates). For KSSQSVLYESRNKNSVA / WASTRES / QQNHRLALY, the assay gave no signal (0 of 3 replicates). With KSSQSVLYESRNKNSVA / AASTRVS / QQFHRLPLS the result was 5.0 nM (3 of 3 replicates).

With KSAQSVLYESRNKNSVA / WASTRES / QQTHRKPLS the result was no signal (0 of 3 replicates). The variant KSSQSVLYNSRNKNSVA / WASTRET / QQLHRLPLS gave no signal (0 of 3 replicates). With KSSQSHLYESRNKNSVK / WASTRES / QQMHRLPLS the result was 830 nM (1 of 3 replicates). With KSSQSVLYESRNKNSVA / WASTRES / QQPSRLPLS the result was 3.9 nM (3 of 3 replicates). The variant KSSQSVLYESRNKVSVA / YASTRES / QQEHRLPLS showed 2.6 µM (1 of 3 replicates). The variant KSSQSVLYESRNKNSVC / WASTRES / EQAHRLPLS gave 86 µM (2 of 3 replicates).

With KSSQSVLYESLNKNSVA / WASTRES / QQEHRNPLS the result was 24 µM (1 of 3 replicates). The variant KSSQDVLYKSRNKNSVA / WASTRES / QQSHRLPLS showed 18 µM (1 of 3 replicates). With KSSQSVLYESRNKNSVA / WASTRES / QQDIRLPLS the result was no signal (0 of 3 replicates). The variant KSSQSVLYESRNTNSVA / WASTRES / QQLHRLPLS gave 21 nM (3 of 3 replicates). With KYSQSVLYESRNKNSVA / WASTPES / QQHHRLPLS the result was 8.3 µM (1 of 3 replicates). For KVSQSVLYESRNKNSVA / WASTREP / QQNHRLPLS, the assay gave 12 nM (3 of 3 replicates).

The variant KSSQWVLYESRNKNSVA / WASTRES / CQEHRLPLS showed 53 nM (3 of 3 replicates). The variant KSSQSVLYESRNKNSVA / WASTYES / QQQHRLPLN gave 480 µM (1 of 3 replicates). The variant KSSQSVLLESRNKNSVA / WASTKES / QQLHRLPLS showed no signal (0 of 3 replicates). For KSSQSVLYESRNKNSVA / WWSTRES / KQFHRLPLS, the assay gave 150 µM (3 of 3 replicates). For KSSQSVLYESRNKNSVA / WASTIES / QQNVRLPLS, the assay gave 25 µM (2 of 3 replicates). The variant KSSQSVLYEERNKNSVA / WASTRDS / QQKHRLPLS showed 7.1 nM (3 of 3 replicates).

With KSSQSVLYESRNKNSVA / WASTRES / QQNHRLPQS the result was no signal (0 of 3 replicates). The variant KSSQSVLYVSRNKNSVA / WASTRES / QQRHRLPLS gave no signal (0 of 3 replicates). With KSSQSVLYESRNKNVVA / WASTRES / QQSHRLYLS the result was 8.8 µM (2 of 3 replicates). With RSSQSVLYESRNKNSVA / WAMTRES / QQKHRLPLS the result was 90 nM (3 of 3 replicates). For KSSQSVLYEWRNKNCVA / WASTRES / QQCHRLPLS, the assay gave 17 µM (2 of 3 replicates). The variant KSSQSVLYESRNKNSVA / WAQTRES / DQMHRLPLS showed no signal (0 of 3 replicates).

For KHSQSVLIESRNKNSVA / WASTRES / QQLHRLPLS, the assay gave 64 nM (3 of 3 replicates). For KSSQSVLYEARNKNSVK / WASTRES / QQRHRLPLS, the assay gave no signal (0 of 3 replicates). With KSSQSVQYESRNKNSWA / WASTRES / QQCHRLPLS the result was no signal (0 of 3 replicates). With KSSQSVLEESRNKNSVA / WASTRES / QQWHRLPLS the result was 8.3 nM (3 of 3 replicates). With KSSQSVLYESRNINSGA / WASTRES / QQAHRLPLS the result was no signal (0 of 3 replicates). For KSSQSVLYESRNKNSVA / WAGTRES / QQMHRLPIS, the assay gave 52 nM (3 of 3 replicates).

For KSSQSVLYESSNKNSVA / WASTRES / PQEHRLPLS, the assay gave 1.3 nM (3 of 3 replicates). The variant NSSQSVLYESRNKNSVA / WASTRES / QQFPRLPLS gave 4.7 µM (1 of 3 replicates). The variant KSGQSVLYESRNKNSVA / WASTRES / QQPHRLPLT gave no signal (0 of 3 replicates). The variant KSSQSVLYESRNKNSYA / WAKTRES / QQAHRLPLS gave 15 µM (2 of 3 replicates).

4 of these entries, quoted again:

{"CDR-L1": "KSSQSHLYESRNKNSVK", "CDR-L2": "WASTRES", "CDR-L3": "QQMHRLPLS", "apparent Kd": "830 nM", "detected": "1/3"}
{"CDR-L1": "KSSQSVLYESRNINSGA", "CDR-L2": "WASTRES", "CDR-L3": "QQAHRLPLS", "apparent Kd": "no signal", "detected": "0/3"}
{"CDR-L1": "KSSQSVLEESRNKNSVA", "CDR-L2": "WASTRES", "CDR-L3": "QQWHRLPLS", "apparent Kd": "8.3 nM", "detected": "3/3"}
{"CDR-L1": "KSSQSVLYESRNKNSVA", "CDR-L2": "WASTAES", "CDR-L3": "QQEHRKPLS", "apparent Kd": "no signal", "detected": "0/3"}